Measurements published in publication PMC4869338, “Pre-clinical evaluation of CYP 2D6 dependent drug–drug interactions between primaquine and SSRI/SNRI antidepressants” (Malaria Journal, 2016).

Sequences of proteins named here, by UniProt entry; tags and fusion partners are left off.
UniProt P10635, whole entry: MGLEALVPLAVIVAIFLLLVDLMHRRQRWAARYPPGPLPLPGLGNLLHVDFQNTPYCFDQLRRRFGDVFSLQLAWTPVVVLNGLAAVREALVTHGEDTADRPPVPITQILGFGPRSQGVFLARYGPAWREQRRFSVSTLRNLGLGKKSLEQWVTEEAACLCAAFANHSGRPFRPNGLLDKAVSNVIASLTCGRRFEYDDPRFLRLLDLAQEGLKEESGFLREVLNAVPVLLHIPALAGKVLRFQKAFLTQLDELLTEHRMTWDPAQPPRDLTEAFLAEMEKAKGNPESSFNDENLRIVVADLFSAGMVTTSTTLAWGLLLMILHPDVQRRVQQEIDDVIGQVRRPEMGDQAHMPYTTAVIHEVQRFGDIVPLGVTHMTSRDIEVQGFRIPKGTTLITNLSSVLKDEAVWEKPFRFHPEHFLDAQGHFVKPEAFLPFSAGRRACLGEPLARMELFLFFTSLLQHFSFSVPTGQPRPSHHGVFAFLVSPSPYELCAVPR

Target: Recombinant human CYP 2D6 (Homo sapiens, UniProt P10635)
Test: Time course of primaquine metabolism by recombinant human CYP 2D6 with fluoxetine pre-incubation
Assay type: in vitro ADME
Settings: fluoxetine 10 µM pre-incubation; primaquine 1 μM; 0-60 min

SMILES: CNCCC(Oc1ccc(C(F)(F)F)cc1)c1ccccc1 (stereo not shown) [fluoxetine]
- inhibition of primaquine metabolism by CYP 2D6: completely inhibited primaquine metabolism
